# Laboratory results: PMC5972519 (Journal of pharmaceutical and biomedical analysis, 2016)
# Assay: Plasma pharmacokinetics of
# Format: in vivo, Wistar rat
# Details: Chronic Arm / Acute Arm, 30 min post dosing
structure (smiles),measurement,value
"CNC1(c2ccccc2Cl)CCCCC1=O (racemic) [(R,S)-Ket, (R,S)-Ketamine, reference compound]",Plasma concentration Ratio (C/A),0.93
